# Test results as given in patent US7388124B2 (priority 2001, dated 2008).
# Tested on: rat pain model variants
# Type: in vivo, Sprague Dawley rats
# Settings: Ketorolac 10% 0.1 cc IP; for von Frey F 4.93 # ST[…]-ANALGESIC: of 6
# Procedure: Male Sprague Dawley rats initially weighing between 150 and 175 grams were housed singly. […] The pain behaviors studied were static mechanical allodynia (e.g., light touch stimulation with von Frey fibers 4.56, 4.73, 4.93, and/or 5.07), dynamic mechanical allodynia (e.g., stimulation with moving camel hair brush), and/or mechanical hyperalgesia (e.g., pinprick stimulation).
# After the baseline control data was collected, the specified procedure with a gel was performed near the chosen nerve of each variant group (see Tables 2-6 and 8-10), then the rats were tested post procedurally and intermittently for up to 77 days for behavioral changes (see Tables 2-6 and 8-11) and for their responses to substances with analgesic properties (see Tables 7 and 12).
# The stimuli used to elicit pain behavior were the von Frey fibers, camel hair brush and pinprick, with 6 stimulations of each stimulus.
# The tunnels identified by the above studies were then used for the placement of the biocompatible gels by the chosen peripheral nerves. The gelatinous or viscous substances (i.e., the gels) placed by the peripheral nerves or nerve roots contained collagen (e.g., AVITENE® and gelatin) or hydrogels. The “collagen gel” used in the present study was composed of 0.8 grams of collagen as AVITENE® (microfibrillar collagen hemostat flour, Davol Inc., Cranston, R.I. 02920) and 0.7 grams of collagen as gelatin (Knox gelatin, Kraft Foods, Northfield, Ill. 60093) mixed with 14 cc of normal saline until homogenous. Then the collagen mixture was placed in a PYREX® bowl resting in a paper bowl and covered with a ceramic saucer, then heated for 20 seconds at full power in a microwave. The resulting viscous mixture was kept fluid in a warm water bath at 100-110° F., until used for the placement procedure. The wound hydrogels used in the present study were two types: one contains alginate (SAF-Gel® from ConvaTec of E. R. Squibb & Sons, Princeton, N.J.) and the other contains acemannan from Aloe vera L. (Carrasyn®V from Carrington Laboratories, Irving, Tex.). […] Such hydrogels are used in the care of open dermal wounds as well as in first and second degree burns since they provide a closed moist environment for wound healing.
# The rats were anesthesized with 1.5% to 2% isoflurane for the percutaneous kinesthetic placement of the above “gels” by the specified nerves. Using an angled 23 gauge thin wall 1″ needle, approximately 0.1 cc-0.2 cc of gel was placed percutaneously with kinesthetic technique in the anatomically defined fascial tunnels of the chosen peripheral nerves as described below.
# The doses were given intraperitoneally (I.P.) and behavioral stimulus testing began 40-80 minutes after the dose. The student's t-test (p<0.05) was performed for determining the significance of changes in behaviors associated with pain after the analgesic was administered.
smiles,measurement,setting,value
"O=C(c1ccccc1)c1ccc2n1CCC2C(=O)O (centres unmarked) [Ketorolac, ketorolac]",von Frey F 4.93 # ST[…]-ANALGESIC,"1 rat peroneal n. with Avitene collagen, pre 6",6
same,von Frey F 4.93 # ST[…]-ANALGESIC,"1 rat tibial n. with Acemannan hydrogel, pre 6",5
same,von Frey F 4.93 # ST[…]-ANALGESIC,"1 rat tibial n. with Alginate hydrogel, pre 6",6
same,von Frey F 4.93 # ST[…]-ANALGESIC,"single rats sciatic n. with Alginate hydrogel (two rats, pre 5 and 6)",2 and 3
same,"von Frey F 4.93 # ST[…]-ANALGESIC, Total","total of 5 rats, pre total 29, pre vs post p=1.6E-1",22

# “And” between values parts separate entries of the source, which are not always exact repeats. Equal values may be shown once. Read-outs that look alike come from different tables or passages of the source.
